Test results: BindingDB's records for doi:10.1021/jm060715y (University of California San Francisco, 2006)
pIC50: −log10 of the molar value.

Molecular target: T1, Enoyl-[acyl-carrier-protein] reductase [NADH] (Mycobacterium tuberculosis (strain ATCC 25618 / H37Rv), UniProt P9WGR1)
T1 sequence (P9WGR1 whole entry): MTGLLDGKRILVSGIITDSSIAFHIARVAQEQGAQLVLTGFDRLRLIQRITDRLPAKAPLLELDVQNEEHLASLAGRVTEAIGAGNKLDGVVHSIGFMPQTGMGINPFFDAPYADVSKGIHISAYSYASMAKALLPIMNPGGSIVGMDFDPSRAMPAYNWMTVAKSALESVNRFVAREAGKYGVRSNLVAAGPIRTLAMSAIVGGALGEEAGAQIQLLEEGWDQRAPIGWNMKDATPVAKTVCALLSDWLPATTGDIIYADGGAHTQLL

## CC(C)Cc1cccc(NC(=O)C2CC(=O)N(C3CCCCC3)C2)c1 (stereo unspecified) [1-cyclohexyl-N-[3-(2-methylpropyl)phenyl]-5-oxopyrrolidine-3-carboxamide]
  pIC50: 5.26
